{
  "sequences": {"note": "Sequences of proteins named here, by UniProt entry; tags and fusion partners are left off. A change or cut given only in a name is not applied to a line headed by its entry.", "UniProt P49841": "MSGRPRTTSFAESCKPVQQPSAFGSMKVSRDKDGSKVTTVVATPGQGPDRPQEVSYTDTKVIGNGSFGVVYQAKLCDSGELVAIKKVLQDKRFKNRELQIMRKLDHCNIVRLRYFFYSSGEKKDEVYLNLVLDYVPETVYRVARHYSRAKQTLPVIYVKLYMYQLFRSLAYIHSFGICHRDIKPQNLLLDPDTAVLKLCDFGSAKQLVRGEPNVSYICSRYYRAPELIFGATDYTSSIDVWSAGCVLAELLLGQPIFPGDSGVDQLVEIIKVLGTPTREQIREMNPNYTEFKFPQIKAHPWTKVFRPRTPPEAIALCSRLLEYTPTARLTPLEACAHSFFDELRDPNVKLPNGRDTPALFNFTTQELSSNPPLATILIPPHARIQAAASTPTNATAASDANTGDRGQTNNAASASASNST"},
  "source": "paper PMC11571108",
  "about": "(2024)",
  "key": {"[1]": {"assay": "in vitro", "conditions": "mouse, hepatocytes"}, "[2]": {"target": "GSK3β(h) (Homo sapiens, UniProt P49841)", "assay": "biochemical"}, "[3]": {"tested_on": "P. falciparum 3D7", "assay": "microbe, parasite or virus in culture", "conditions": "Plasmodium falciparum"}, "[4]": {"tested_on": "asexual P. falciparum 3D7 parasites", "assay": "Time of inhibition assays in 3D7 parasites", "conditions": "1 μM (8 × EC50), dosed at early ring, immature and mature trophozoite, schizont"}},
  "data": [
    {"smiles": "CCN(CC)Cc1ccc(OC)c(-c2cc3c(-c4ccc(C(=O)O)c(C(C)C)c4)ccnc3[nH]2)c1", "note": "[Compound 1, TCMDC-135051]", "values": [
      {"measurement": "hepatocyte CLint", "setting": "[1]", "value": 12.3, "unit": "µL/min/1e6 cells"},
      {"measurement": "remaining activity at 1 µM", "setting": "[2]", "value": 46, "unit": "%"},
      {"measurement": "EC50", "setting": "[3]; 3D7, 72 h, read-out: pEC50 (3D7) (converted)", "value": 129, "unit": "nM"},
      {"measurement": "IC50", "setting": "[3]; 3D7, read-out: potency following washout (pIC50) (converted)", "value": 1230, "unit": "nM"}
    ]},
    {"smiles": "COc1ccc(CN2CCN(C(=O)CCl)CC2)cc1-c1cc2c(-c3ccc(C(=O)O)cc3)ccnc2[nH]1", "note": "[Compound 4, 4-[2-(5-{[4-(2-Chloroacetyl)piperazin-1-yl]methyl}-2-methoxyphenyl)-1H-pyrrolo[2,3-b]pyridin-4-yl]benzoic Acid]", "values": [
      {"measurement": "phenotypic response", "setting": "[4]", "value": "arrests development and kills parasites at every stage in the erythrocytic life cycle"}
    ]}
  ]
}
